This test concerns the target glycogen phosphorylase (from rabbit muscle, Sigma P1261) (Oryctolagus cuniculus, UniProt P00489). The experiment in a line: Enzyme Inhibition Assay (malachite green phosphate readout). The test is classed as biochemical.

Chains of the proteins cited; added tags and fusions are not shown. Residues count along the entry.
UniProt P00489, 2-843 limits assumed: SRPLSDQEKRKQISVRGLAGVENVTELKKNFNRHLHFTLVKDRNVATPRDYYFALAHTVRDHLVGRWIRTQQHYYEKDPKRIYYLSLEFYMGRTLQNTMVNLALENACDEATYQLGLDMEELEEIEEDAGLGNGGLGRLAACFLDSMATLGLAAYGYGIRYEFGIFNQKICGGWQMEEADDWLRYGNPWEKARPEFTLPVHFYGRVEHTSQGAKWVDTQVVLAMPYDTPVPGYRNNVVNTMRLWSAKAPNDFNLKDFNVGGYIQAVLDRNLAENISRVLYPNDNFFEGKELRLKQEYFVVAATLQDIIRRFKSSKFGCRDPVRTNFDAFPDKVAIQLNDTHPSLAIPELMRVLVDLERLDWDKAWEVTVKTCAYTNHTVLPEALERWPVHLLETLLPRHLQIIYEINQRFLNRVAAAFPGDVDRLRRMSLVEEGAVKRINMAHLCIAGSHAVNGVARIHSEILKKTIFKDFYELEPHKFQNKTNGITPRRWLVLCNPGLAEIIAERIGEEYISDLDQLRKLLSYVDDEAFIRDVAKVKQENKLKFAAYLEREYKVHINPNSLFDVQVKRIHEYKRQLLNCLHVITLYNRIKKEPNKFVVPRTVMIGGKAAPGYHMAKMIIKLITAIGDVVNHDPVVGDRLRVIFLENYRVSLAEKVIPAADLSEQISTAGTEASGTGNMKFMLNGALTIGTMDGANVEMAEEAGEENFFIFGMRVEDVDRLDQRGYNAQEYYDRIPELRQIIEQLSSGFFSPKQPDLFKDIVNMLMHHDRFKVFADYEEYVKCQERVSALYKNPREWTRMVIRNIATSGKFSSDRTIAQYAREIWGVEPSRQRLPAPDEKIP

One may read the IC50 as the concentration needed to halve the response being measured.

As for `Cn1c(=O)c(Nc2ccc(-c3ccoc3)cc2)nc2ccccc21`, where the note is “+/−.05”, the IC50 came out at 5 µM. Also, the “% inhibition” value (@ 20 μM test compound, percent inhibition (±10%) of enzymatic activity) was 40% @ 20 μM.

The record behind these values is patent US20050148586A1 (priority 2004, published 2005).
